Test system: type II diabetic mice (db/db)
Experiment: combination of MNH05119 and metformin in type II diabetic model mice (Example 7)
Type: in vivo, BKS-Leprem2Cd479/Gpt (db/db) mice
Conditions: Day27, MNH05119 2×10^10 CFU/mouse twice daily, metformin 250 mg/kg once daily, oral gavage

Compound: CN(C)C(=N)N=C(N)N [metformin]
- reduction of AUC-OGTT compared to negative control group: 19.2%
